Molecular target: Y537S mutant ERα ligand-binding domain (Homo sapiens, UniProt P03372, Y537S)
Experiment: LanthaScreen TR-FRET competition binding, Y537S
Conditions: Y537S ESR1m

Protein sequences, listed by entry. Tags and fused reporters are not part of them. Residues count along the entry.
UniProt P03372, 311-547 Y537S limits assumed: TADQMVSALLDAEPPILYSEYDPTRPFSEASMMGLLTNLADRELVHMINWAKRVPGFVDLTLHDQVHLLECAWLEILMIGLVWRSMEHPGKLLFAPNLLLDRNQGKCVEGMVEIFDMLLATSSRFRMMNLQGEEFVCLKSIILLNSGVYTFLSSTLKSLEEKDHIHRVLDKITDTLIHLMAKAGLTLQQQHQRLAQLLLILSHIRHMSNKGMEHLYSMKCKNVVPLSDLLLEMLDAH

With `C[C@]12CC[C@@H]3c4ccc(O)cc4C[C@@H](CCCCCCCCC[S+]([O-])CCCC(F)(F)C(F)(F)F)[C@H]3[C@@H]1CC[C@@H]2O` (stereo partly shown) [fulvestrant, reference compound] the “binding affinity relative to ESR1wt” value was “Some loss of affinity”.

Reference: paper PMC10690091 (Cancer Research, 2023)
